{
  "source": "paper PMC12712897",
  "about": "“Development of New IL-1R Antagonists with Improved Anti-inflammatory Efficacy” (Theranostics, 2026)",
  "binders": {"B1": {"name": "wild-type recombinant human interleukin-1 receptor antagonist (iPT hIL-1Ra WT) (natural protein)", "chain": "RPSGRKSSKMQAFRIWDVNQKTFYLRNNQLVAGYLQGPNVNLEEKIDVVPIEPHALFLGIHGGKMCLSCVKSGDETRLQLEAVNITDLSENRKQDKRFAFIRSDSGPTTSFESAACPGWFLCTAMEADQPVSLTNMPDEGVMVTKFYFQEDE", "notes": "interleukin-1 receptor antagonist (IL-1Ra), human, recombinant form (rhIL-1Ra); It was cloned in pET21a between NdeI and XhoI, and no tag is named; also called WT IL-1Ra; rhIL-1Ra; source: E. coli BL21(DE3) RIL, purified (HiTrap Q ion exchange, Superdex 75 SEC)"}},
  "key": {"[1]": {"target": "T1, type I interleukin-1 receptor (UniProt P14778 18-336, fluorescently labeled (in the MST assay only))", "T1 construct": "type I interleukin-1 receptor (IL-1R1); Probably a soluble His-tagged extracellular domain of human IL-1R1 (surmised); The details are said to be in the Supplementary Methods; also called IL-1R1; IL-1R", "T1 sequence (looked up)": "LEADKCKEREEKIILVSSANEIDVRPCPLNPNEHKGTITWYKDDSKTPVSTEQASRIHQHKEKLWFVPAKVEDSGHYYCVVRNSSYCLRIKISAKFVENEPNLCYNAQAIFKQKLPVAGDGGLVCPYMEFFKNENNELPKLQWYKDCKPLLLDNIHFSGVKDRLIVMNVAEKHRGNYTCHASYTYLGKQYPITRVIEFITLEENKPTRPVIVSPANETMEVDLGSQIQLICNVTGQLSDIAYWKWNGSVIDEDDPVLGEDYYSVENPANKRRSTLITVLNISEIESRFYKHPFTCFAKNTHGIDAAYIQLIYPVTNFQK", "test": "SPR; IL-1R1 captured on a CM5 chip via a His Capture Kit; various concentrations of IL-1Ra variants and IL-1β flowed as analytes; Biacore T200", "settings": "both partners purified"}, "[2]": {"target": "T1, type I interleukin-1 receptor", "test": "MST; fluorescently labeled IL-1R1 titrated with serially diluted IL-1Ra variants and IL-1β; Monolith NT.115-pico", "settings": "both partners purified"}},
  "data": [
    {"binder": "B1", "values": [
      {"measurement": "Kd", "setting": "[1]", "value": 0.264, "unit": "nM"},
      {"measurement": "Kd", "setting": "[2]", "value": 3.79, "unit": "nM"}
    ]}
  ]
}
